We go through 19 compounds from patent US20250361280A1 (Protagonist Therapeutics, Inc., priority 2022, published 2025).

The target of assay [1] is T1, ferroportin (Homo sapiens, UniProt Q9NP59).
T1 sequence (Q9NP59 1-571): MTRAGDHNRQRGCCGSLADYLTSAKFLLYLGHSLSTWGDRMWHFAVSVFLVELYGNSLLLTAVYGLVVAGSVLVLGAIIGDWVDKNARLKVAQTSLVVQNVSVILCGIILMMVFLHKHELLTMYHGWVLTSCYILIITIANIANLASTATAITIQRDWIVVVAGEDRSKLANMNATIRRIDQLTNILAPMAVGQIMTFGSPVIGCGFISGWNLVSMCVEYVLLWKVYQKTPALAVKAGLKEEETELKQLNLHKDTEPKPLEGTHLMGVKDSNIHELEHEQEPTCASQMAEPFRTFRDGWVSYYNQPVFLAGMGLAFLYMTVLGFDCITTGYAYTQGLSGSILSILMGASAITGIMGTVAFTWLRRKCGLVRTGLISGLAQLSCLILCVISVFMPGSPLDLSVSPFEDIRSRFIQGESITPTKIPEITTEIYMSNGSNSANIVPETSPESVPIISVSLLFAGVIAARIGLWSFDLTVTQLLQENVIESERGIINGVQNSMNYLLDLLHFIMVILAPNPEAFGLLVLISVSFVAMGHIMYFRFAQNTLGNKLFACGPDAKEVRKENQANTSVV
In words: T47D internalization assay in presence of mouse serum albumin. Format: cell-based. Set-up: a human breast carcinoma adherent cell line which endogenously expresses ferroportin; host or cells: T47D. Conditions: T47D cells, 0.5% mouse serum albumin, 1 hr incubation. How it is done: The potency of the peptides disclosed in causing ferroportin internalization was evaluated in a T47D cell-based assay. […] In this internalization assay, the potency of the test peptides was evaluated in presence of serum albumin which is the main protein component in the blood. T47D cells were maintained in RPMI media (containing required amount of fetal bovine serum) and regularly sub-cultured. In preparation for the assay, the cells were seeded in 96-well plates at a density of 80-100 k cells per well in 100 ul volume and allowed to rest overnight. On the next day, test peptides were first prepared in dilution series (10-point series, starting concentration of ˜5 μM, typically 3-4×fold dilution steps), all with 0.5% mouse serum albumin (MSA purified from mouse serum; Sigma, A3139). The test peptide dilution series were allowed to incubate at room temperature for 30 min. Then the media was aspirated from the 96-well cell plate and test peptide dilution series were added. After 1 hr incubation, the media with test peptides was aspirated out and AF647-conjugated detection peptide was added at fixed concentration of 200 nM. The AF647-conjugated detection peptide was previously verified to bind to ferroportin and cause its internalization. The cells were washed again after a 2 hr incubation in preparation for flow cytometry analysis. The Median Fluorescence Intensity (MFI) of the AF647-positive population was measured (after removing dead cells and non-singlets from the analysis). The MFI values were used to generate a dose-response curve and obtain IC50 potencies for the test peptides. The IC50 potencies were calculated by using 4-parameter non-linear fitting function in Graphpad Prism and the results are provided in Table 1C.

Assay [2] concerns the target T1, ferroportin. In words: FPN internalization assay (FPN activity assay), loss of ferroportin-GFP fluorescence. Format: cell-based.
Where [3] appears, read: Table 1D, read-out: IC50: T47D MSA.
Setting [4] is: Table 1D, HEK293 cells stably expressing ferroportin-GFP, compound at least 18 hours, read-out: IC50: FPN.
The mark [5] stands for this setting: Table 1C, read-out: IC50: T47D MSA.
[6] abbreviates: Table 1C, HEK293 cells stably expressing ferroportin-GFP, compound at least 18 hours, read-out: IC50: FPN.

For the compound `COC(=O)CCC(CCCC(C)C)C(=O)N1C[C@@H]2C[C@H]1C(=O)N[C@@H](Cc1c[nH]cn1)C(=O)N[C@@H](C(c1ccccc1)c1ccccc1)C(=O)N1C[C@@H](C[C@H]1C(=O)N(C)[C@@H](CCCCN)C(=O)NCCCCc1ccccc1)SS2` (some centres unmarked) [compound 170], the 50% inhibitory concentration (IC50) on ferroportin [1] (setting [3]) and at ferroportin [2] (setting [4]) was greater than 500 nM each time.
With `CC(C)CC(=O)N[C@@H](CCC(=O)O)C(=O)N[C@H](C(=O)N[C@@H](Cc1c[nH]cn1)C(=O)N[C@H](C(=O)N1CCC[C@H]1C(=O)N[C@@H](CCCCNC(=O)CCCCC[N+](C)(C)C)C(=O)NCCCCc1ccccc1)C(c1ccccc1)c1ccccc1)[C@@H](C)O` [compound 156], the IC50 on ferroportin [1] (setting [3]) lay within 100 to 500 nM; on ferroportin [2] (setting [4]) it was 30 to 100 nM.
`CC(C)CC(=O)N[C@@H](CCC(=O)O)C(=O)N[C@H](C(=O)N[C@@H](Cc1c[nH]cn1)C(=O)N[C@H](C(=O)N1CCC[C@H]1C(=O)N[C@H](CCCCN)C(=O)N(Cc1ccccc1)C(CCc1ccccc1)C(N)=O)C(c1ccccc1)c1ccccc1)[C@@H](C)O` (some centres unmarked) [compound 147]: the half-inhibitory concentration (IC50) at ferroportin [1] (IC50: T47D MSA (nM, Table 1D)) lay in the range of 100 to 500 nM; against ferroportin [2], 1 to 30 nM.
`CC(C)CC(=O)N[C@H]1CCC(=O)NCCCC[C@H](C(N)=O)NC(=O)[C@H](C(c2ccccc2)c2ccccc2)NC(=O)[C@H](CCCCNC(=O)CCCc2ccc(I)cc2)N(C)C(=O)[C@H](C2CCCCC2)NC(=O)[C@@H]2CSSC[C@H](NC1=O)C(=O)N[C@@H](Cc1c[nH]cn1)C(=O)N[C@@H](C(c1ccccc1)c1ccccc1)C(=O)N2` [compound 76]: the results for the IC50 on ferroportin [1] (setting [3]) and at ferroportin [2] (setting [4]) were greater than 500 nM and 30 to 100 nM, respectively.
In the case of `CC(C)CC(=O)N[C@@H](CCC(=O)O)C(=O)N[C@H](C(=O)N[C@@H](Cc1c[nH]cn1)C(=O)N[C@H](C(=O)N1CCC[C@H]1C(=O)N[C@@H](CCCCN)C(=O)NCCCCc1ccccc1)C(c1ccccc1)c1ccccc1)[C@@H](C)O` [compound 217], the IC50 at ferroportin [1] (setting [3]) was greater than 500 nM; on ferroportin [2] (setting [4]), 100 to 500 nM.
With `CC(=O)NCC[N+](C)(C)CC(=O)NCCCC[C@H](NC(=O)[C@@H]1CCCN1C(=O)[C@@H](NC(=O)[C@H](Cc1c[nH]cn1)NC(=O)[C@@H](NC(=O)[C@H](CCC(=O)O)NC(=O)CC(C)C)[C@@H](C)O)C(c1ccccc1)c1ccccc1)C(=O)NCCCCc1ccccc1` [compound 20], the IC50 on ferroportin [1] (setting [5]) lay in the range of 100 to 500 nM; at ferroportin [2] (setting [6]), 30 to 100 nM.
Regarding `CC(=O)NCC[N+](C)(C)CC(=O)NCCCCCC(=O)NCCCC[C@H](NC(=O)[C@@H]1CCCN1C(=O)[C@@H](NC(=O)[C@H](Cc1c[nH]cn1)NC(=O)[C@@H](NC(=O)[C@H](CCC(=O)O)NC(=O)CC(C)C)[C@@H](C)O)C(c1ccccc1)c1ccccc1)C(=O)NCCCCc1ccccc1` [compound 212], the values for the 50% inhibitory concentration (IC50) on ferroportin [1] (setting [3]) and at ferroportin [2] (setting [4]) were 10 to 100 nM and 30 to 100 nM, respectively.
Regarding `CCCCCCCCCCCCCCCC(=O)N[C@@H](CN)C(=O)NCCOCCOCC(=O)NCCOCCOCC(=O)NCCCC[C@H](NC(=O)[C@@H]1CSSC[C@H](NC(=O)C(CCCC(C)C)CCC(=O)OC)C(=O)N[C@@H](Cc2c[nH]cn2)C(=O)N[C@@H](C(c2ccccc2)c2ccccc2)C(=O)N1)C(=O)NCCCCc1ccccc1` (some centres unmarked) [compound 175], the IC50 at ferroportin [1] (setting [3]) is 100 to 500 nM; at ferroportin [2] (setting [4]), greater than 500 nM.
Taken in the same sequence, the figures for `CC(C)CC(=O)N[C@H]1CCC(=O)NCCOc2ccc(cc2)C[C@@H](C(N)=O)NC(=O)[C@H](CCCCNC(=O)CCOCCOCCOCCOCCNC(=O)CCCc2ccc(I)cc2)NC(=O)[C@@H]2CSSC[C@H](NC1=O)C(=O)N[C@@H](Cc1c[nH]cn1)C(=O)N[C@@H](C(c1ccccc1)c1ccccc1)C(=O)N2` [compound 62] were greater than 500 nM and 1 to 30 nM.
Taken in the same sequence, the figures for `CCCCCCCCCCCCCCCC(=O)NCC[N+](C)(C)CC(=O)NCCOCCOCCOCCOCCOCCOCCOCCOCCOCCOCCOCCOCCC(=O)NCCCC[C@H](NC(=O)[C@@H]1CCCN1C(=O)[C@@H](NC(=O)[C@H](Cc1c[nH]cn1)NC(=O)[C@@H](NC(=O)[C@H](CCC(=O)O)NC(=O)CC(C)C)[C@@H](C)O)C(c1ccccc1)c1ccccc1)C(=O)N[C@@H](Cc1ccccc1)C(=O)NCCCCC` [compound 183] were 0.1 to 10 nM and 1 to 30 nM.
Regarding `CCCCCCCCCCCCCCCC(=O)NCC[N+](C)(C)CC(=O)NCCOCCOCC(=O)NCCOCCOCC(=O)NCCCC[C@H](NC(=O)[C@@H]1C[C@@H]2CN1C(=O)[C@H](C(c1ccccc1)c1ccccc1)NC(=O)[C@H](Cc1c[nH]cn1)NC(=O)[C@@H]1C[C@@H](CN1C(=O)[C@H](CCC(=O)O)NC(=O)CC(C)C)SS2)C(=O)NCCCCCc1ccccc1` [compound 124], the IC50 at ferroportin [1] (setting [3]) lay within 0.1 to 10 nM; on ferroportin [2] (setting [4]), 1 to 30 nM.
Taken in the same sequence, the figures for `COC(=O)CCC(CCCC(C)C)C(=O)N[C@H](C(=O)N[C@@H](Cc1c[nH]cn1)C(=O)N[C@H](C(=O)N1CCC[C@H]1C(=O)N(C)[C@@H](CCCCN)C(=O)NCCCCc1ccccc1)C(c1ccccc1)c1ccccc1)[C@@H](C)O` (some centres unmarked) [compound 178] were greater than 500 nM and greater than 500 nM.
For `CCCCCCCCCCCCCCCC(=O)NCC[N+](C)(C)CC(=O)NCCOCCOCC(=O)NCCOCCOCC(=O)NCCCC[C@H](NC(=O)[C@@H]1CCCN1C(=O)[C@@H](NC(=O)[C@H](Cc1c[nH]cn1)NC(=O)[C@@H](NC(=O)[C@H](CCC(=O)O)NC(=O)CC(C)C)[C@@H](C)O)C(c1ccccc1)c1ccccc1)C(=O)NCCCC1CCCCC1` [compound 107], in that order: 0.1 to 10 nM and greater than 500 nM.
As for `CCCCCCCCCCCCCCCC(=O)NCCCCCC(=O)NCCOc1ccc(C[C@H](NC(=O)[C@@H]2CCCN2C(=O)[C@@H](NC(=O)[C@H](Cc2c[nH]cn2)NC(=O)[C@@H](NC(=O)[C@H](CCC(=O)O)NC(=O)CC(C)C)[C@@H](C)O)C(c2ccccc2)c2ccccc2)C(N)=O)cc1` [compound 35], the IC50 at ferroportin [1] (setting [5]) and at ferroportin [2] (setting [6]) was 100 to 500 nM throughout.
With `CCCCCCCCCCCCCCCC(=O)N[C@@H](CCC(=O)NCC[N+](C)(C)CC(=O)NCCCC[C@H](NC(=O)[C@@H]1CCCN1C(=O)[C@@H](NC(=O)[C@H](Cc1c[nH]cn1)NC(=O)[C@@H](NC(=O)[C@H](CCC(=O)O)NC(=O)CC(C)C)[C@@H](C)O)C(c1ccccc1)c1ccccc1)C(=O)NCCCCCc1ccccc1)C(=O)O` [compound 89], the IC50 at ferroportin [1] (setting [3]) lay in the range of 10 to 100 nM; at ferroportin [2] (setting [4]) it was 1 to 30 nM.
For `CC(C)CC(=O)N[C@@H](CCC(=O)O)C(=O)N[C@H](C(=O)N[C@@H](Cc1c[nH]cn1)C(=O)N[C@H](C(=O)N1CCC[C@H]1C(=O)N[C@@H](CCCCNC(=O)COCCOCCNC(=O)COCCOCCNC(=O)[C@H](CN)NC(=O)CCCc1ccc(I)cc1)C(=O)NCCCCc1ccccc1)C(c1ccccc1)c1ccccc1)[C@@H](C)O` [compound 129], in that order: 10 to 100 nM and 1 to 30 nM.
For `CCCCCCCCCCCCCCCC(=O)NCC[N+](C)(C)CC(=O)NCCOCCOCC(=O)NCCOCCOCC(=O)NCCCC[C@H](NC(=O)[C@@H]1C[C@@H]2CN1C(=O)[C@H](C(c1ccccc1)c1ccccc1)NC(=O)[C@H](Cc1c[nH]cn1)NC(=O)[C@@H](NC(=O)[C@H](CCC(=O)O)NC(=O)CC(C)C)CC(=O)N2)C(=O)NCCCCc1ccccc1` [compound 191], in that order: 100 to 500 nM and 30 to 100 nM.
Taken in the same sequence, the figures for `CC(C)CC(=O)N[C@@H](CCC(=O)O)C(=O)N[C@H]1CSSC[C@@H](C(=O)N[C@@H](CCCC[N+](C)(C)C)C(=O)N[C@@H](C(N)=O)C(c2ccccc2)c2ccccc2)NC(=O)[C@H](C(C)(C)C)NC(=O)[C@@H]2CCCN2C(=O)[C@H](C(c2ccccc2)c2ccccc2)NC(=O)[C@H](Cc2c[nH]cn2)NC1=O` [compound 163] were greater than 500 nM and 1 to 30 nM.
Regarding `CCCCCCCCCCCCCCCC(=O)NCCCCCC(=O)NCCOCCOCCOCCOCCC(=O)NCCCC[C@H](NC(=O)[C@@H]1CCCN1C(=O)[C@@H](NC(=O)[C@H](Cc1c[nH]cn1)NC(=O)[C@@H](NC(=O)[C@H](CCC(=O)O)NC(=O)CC(C)C)[C@@H](C)O)C(c1ccccc1)c1ccccc1)C(=O)NCCCCCc1ccccc1` [compound 92], the IC50 on ferroportin [1] (setting [3]) was in the range of 0.1 to 10 nM; on ferroportin [2] (setting [4]) it was 1 to 30 nM.

What is called IC50 is the concentration needed to halve the response being measured.
